Columns and labels:
[1] = target: RAF proto-oncogene serine/threonine-protein kinase (Homo sapiens, UniProt P04049, Y340E/Y341E); test: Inhibition of CRAF Y340E/Y341E mutant (unknown origin) using human MEK1 K97R mutant as substrate pretreated for 30 mins followed by substrate addition measured after 40 mins by alphascreen assay
[2] = target: RAF proto-oncogene serine/threonine-protein kinase (Homo sapiens, UniProt P04049); test: Inhibition of CRAF in human Calu6 cells assessed as reduction MEK phosphorylation measured after 1 hr by sandwich ELISA; format: cell-based

By UniProt entry, the sequences of proteins in these tests, tags left out.
UniProt P04049, whole entry Y340E/Y341E: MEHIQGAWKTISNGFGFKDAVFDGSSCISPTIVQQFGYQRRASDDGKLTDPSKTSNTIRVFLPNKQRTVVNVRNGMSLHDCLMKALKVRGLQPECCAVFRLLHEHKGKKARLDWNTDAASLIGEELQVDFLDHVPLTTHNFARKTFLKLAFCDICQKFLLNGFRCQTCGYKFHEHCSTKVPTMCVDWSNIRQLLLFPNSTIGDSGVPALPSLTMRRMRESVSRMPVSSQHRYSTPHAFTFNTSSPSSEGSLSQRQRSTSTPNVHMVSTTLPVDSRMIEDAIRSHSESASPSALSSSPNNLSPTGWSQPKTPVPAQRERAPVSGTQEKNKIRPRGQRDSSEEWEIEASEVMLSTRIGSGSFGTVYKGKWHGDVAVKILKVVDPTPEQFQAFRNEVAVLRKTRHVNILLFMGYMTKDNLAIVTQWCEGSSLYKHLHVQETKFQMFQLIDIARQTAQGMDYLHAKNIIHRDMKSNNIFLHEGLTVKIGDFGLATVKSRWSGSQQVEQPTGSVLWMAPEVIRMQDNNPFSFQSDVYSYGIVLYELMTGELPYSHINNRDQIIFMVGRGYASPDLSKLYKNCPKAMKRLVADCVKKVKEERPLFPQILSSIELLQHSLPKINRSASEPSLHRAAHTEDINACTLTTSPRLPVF

Structure (SMILES)	IC50 [1]	EC50 [2]
[2H]C1(Oc2ncc(-c3cc(NC(=O)c4cccc(C(F)(F)F)c4)cnc3C)cc2N2CCOCC2)CCOCC1	0.4 nM	6 nM
Cc1ncc(NC(=O)c2cccc(C(F)(F)F)c2)cc1-c1c[nH]c(=O)c(N2CCOCC2)c1	0.9 nM	64 nM

Source: ChEMBL document CHEMBL4342410, “Design and Discovery of N-(3-(2-(2-Hydroxyethoxy)-6-morpholinopyridin-4-yl)-4-methylphenyl)-2-(trifluoromethyl)isonicotinamide, a Selective, Efficacious, and Well-Tolerated RAF Inhibitor Targeting RAS Mutant Cancers: The Path to the Clinic” (J Med Chem, 2020)
